Measurements: ChEMBL document CHEMBL1129695, “Synthesis and structure-activity relationships of 6-substituted androst-4-ene analogs as aromatase inhibitors” (J Med Chem, 1996)
pIC50, pKi: −log10 of the molar value.

By UniProt entry, the sequences of proteins in these tests, tags left out. Where a name states a change or a piece, a line headed by the entry shows the natural chain unless it says otherwise.
UniProt P11511: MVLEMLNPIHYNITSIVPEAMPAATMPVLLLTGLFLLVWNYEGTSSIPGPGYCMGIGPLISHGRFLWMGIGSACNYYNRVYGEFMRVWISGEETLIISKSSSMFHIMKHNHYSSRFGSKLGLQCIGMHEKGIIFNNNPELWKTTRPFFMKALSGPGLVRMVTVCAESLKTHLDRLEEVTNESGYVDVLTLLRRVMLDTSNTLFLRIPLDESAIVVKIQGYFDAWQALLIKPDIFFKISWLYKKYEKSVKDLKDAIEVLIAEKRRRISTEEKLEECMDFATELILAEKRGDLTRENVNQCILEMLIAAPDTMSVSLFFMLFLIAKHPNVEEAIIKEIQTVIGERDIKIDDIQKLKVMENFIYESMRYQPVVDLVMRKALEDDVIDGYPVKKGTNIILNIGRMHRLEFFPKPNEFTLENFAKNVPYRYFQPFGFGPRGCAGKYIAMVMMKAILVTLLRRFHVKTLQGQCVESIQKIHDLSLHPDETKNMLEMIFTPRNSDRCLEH

Tests used:
Aromatase [1] = target: T1, Aromatase (Homo sapiens, UniProt P11511)
Aromatase [2] = target: T1, Aromatase; remark: listed apart in the source

Structure (SMILES) | pKi (Aromatase [1]) | pIC50 (Aromatase [2])
C[C@]12CCCC=C1CC[C@@H]1[C@@H]2CC[C@]2(C)C(=O)CC[C@@H]12 | 8.17 | 
CC12CCC3C(C[C@H](O)C4=CCCCC43C)C1CCC2=O (stereo partly drawn) | 7.68 | 6.72
